Measured values taken from paper PMC3107989.

Assays:
Assay in all cases: purified protein
[1] = tested on: O=c1cc[nH]c(=O)o1; conditions: Zn2+; pH 8.5; 30.0 °C
[2] = tested on: Nc1cc[nH]c(=O)n1; conditions: pH 8.5, 30.0 °C
[3] = substrate: Nc1nccc(O)n1; conditions: Zn2+; pH 8.5; 30.0 °C
[4] = substrate: Nc1cc[nH]c(=O)n1; conditions: Zn2+ active site; Gln-156 facilitates the binding of cytosine; pH 8.5; 30.0 °C
[5] = substrate: CN1CC(=O)NC1=N; conditions: Zn2+; pH 8.5; 30.0 °C

Molecule: Cytosine deaminase (CDA) (Escherichia coli K-12)
- Km [1]: 4100 ± 300 µM
- kcat [1]: 2.3 s⁻¹
- kcat/Km [1]: 560 M⁻¹ s⁻¹

Molecule: Cytosine deaminase (CDA) (Escherichia coli K-12; D314N)
- Km ([2]; Zn2+): 1900 ± 200 µM
- kcat ([2]; Zn2+): 0.0075 s⁻¹
- kcat/Km ([2]; Zn2+): 4 M⁻¹ s⁻¹

Molecule: Cytosine deaminase (CDA) (Escherichia coli K-12; E218A)
- Km [1]: 850 ± 40 µM
- kcat [1]: 0.18 s⁻¹
- kcat/Km [1]: 210 M⁻¹ s⁻¹

Molecule: Cytosine deaminase (CDA) (Escherichia coli K-12; H247Q)
- Km ([2]; Zn2+/Fe2+ ([…] Zn, […] Fe)): 250 ± 30 µM
- kcat ([2]; Zn2+/Fe2+ ([…] Zn, […] Fe)): 0.18 s⁻¹
- kcat/Km ([2]; Zn2+/Fe2+ ([…] Zn, […] Fe)): 720 M⁻¹ s⁻¹

B1: Cytosine deaminase (CDA) (Escherichia coli K-12) (protein)
chain: SNNALQTIINARLPGEEGLWQIHLQDGKISAIDAQSGVMPITENSLDAEQGLVIPPFVEPHIHLDTTQTAGQPNWNQSGTLFEGIERWAERKALLTHDDVKQRAWQTLKWQIANGIQHVRTHVDVSDATLTALKAMLEVKQEVAPWIDLQIVAFPQEGILSYPNGEALLEEALRLGADVVGAIPHFEFTREYGVESLHKTFALAQKYDRLIDVHCDEIDDEQSRFVETVAALAHHEGMGARVTASHTTAMHSYNGAYTSRLFRLLKMSGINFVANPLVNIHLQGRFDTYPKRRGITRVKEMLESGINVCFGHDDVFDPWYPLGTANMLQVLHMGLHVCQLMGYGQINDGLNLITHHSARTLNLQDYGIAAGNSANLIILPAENGFDALRRQVPVRYSVRGGKVIASTQPAQTTVYLEQPEAIDYKR
- Km [3]: 460 ± 40 µM
- kcat [3]: 5.1 s⁻¹
- kcat/Km [3]: 11000 M⁻¹ s⁻¹
- Km [4]: 970 ± 30 µM
- kcat [4]: 132 s⁻¹
- kcat/Km [4]: 140000 M⁻¹ s⁻¹
- Km [5]: 25000 ± 4000 µM
- kcat [5]: 5.6 s⁻¹
- kcat/Km [5]: 220 M⁻¹ s⁻¹
